Results: PubChem BioAssay AID2029 (NMMLSC, 2009)
The list shows a part of the results, in another mix than the full data. The source made the active and inactive calls.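 Rule for the calls: active = GFP response relative to DMSO above a set limit, near the screen mean plus 3 SD (cut at about 150% in these data); inconclusive = Fewer than 70 cells measured for a yeast strain; inactive = the rest.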

assay: TOR pathway RTG branch CIT2 reporter changes – S. cerevisiae, GFP fusion, multiplex flow cytometry, MLPCN library, primary screen (AID 2029);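 note: ratio of well median GFP fluorescence to mean of DMSO wells on the plate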; details: S. cerevisiae CIT2-GFP strain, 3 h, at 10 µM, active compounds read high, 100 means same as DMSO wells

Structure (SMILES)	GFP response vs DMSO
CCOP(=O)(Nc1cccc2ccccc12)OCC	active: 175%
COc1cc(C2NCCC3(OCCO3)C2(C)C)cc(OC)c1OC (centres undefined)	inactive: 101%
O=C(OC1CN2CCC1CC2)c1ccc(Cl)cc1 (centres undefined)	inactive: 86%
CS(=O)(=O)c1ccc(Cl)c(NC(=O)COC(=O)C(O)(c2ccccc2)c2ccccc2)c1	inactive: 99.6%
COc1cc(C(=O)NCC2(N3CCOCC3)CCCCC2)cc(Cl)c1OC(C)C	inactive: 102%
O=[As](O)(O)c1cccnc1	inactive: 106%
O=[As](O)(c1cccc(O)c1)c1cccc(O)c1	inactive: 100%
Cc1cccc(OCC(=O)OC2CN3CCC2CC3)c1 (centres undefined)	inactive: 109%
NC(=O)Nc1ccc([As](=O)(O)O)cc1	inactive: 108%
CN(C(=O)Cc1ccccc1)[C@@H]1CC[C@]2(CCCO2)C[C@H]1N1CCCC1	inactive: 87.5%
CCOP1(=S)c2c(C)nn(CCC#N)c2N=C(c2ccc(F)cc2)N1C (centres undefined)	inactive: 99.4%
N#CCCN(C(=O)COC(=O)C(O)(c1ccccc1)c1ccccc1)c1ccc(F)cc1	inactive: 99.3%
CN(C(=O)Cc1ccc(Cl)c(Cl)c1)[C@H]1CC[C@@]2(CCCO2)C[C@@H]1N1CCCC1	inactive: 87.8%
CN(C)C(=O)c1cc([N+](=O)[O-])cc2c1-c1c(cc([N+](=O)[O-])cc1[N+](=O)[O-])C2=O	inactive: 78.2%
O=[N+]([O-])c1ccc2c(c1)nnn2O	inactive: 110%
O=P(Nc1nccs1)(c1ccccc1)c1nc2ccccc2s1 (centres undefined)	inactive: 85.8%
O=P(Nc1nccs1)(Oc1ccccc1)Oc1ccccc1	inactive: 96.9%
CCOP1(=S)c2c(C)nn(CCC#N)c2N=C(c2ccccc2F)N1C (centres undefined)	inactive: 97.8%
CS(=O)(=O)c1cc([N+](=O)[O-])c2no[n+]([O-])c2c1	inactive: 86.9%
O=C(O)COc1ccc([As](=O)(O)O)cc1[N+](=O)[O-]	inactive: 117%
Nc1ccccc1[As](=O)(O)c1ccccc1	inactive: 85.6%
O=P1(Nc2ncccn2)COc2ccccc2OC1	inactive: 102%

Structure (SMILES)	GFP response vs DMSO
Nc1cccc([As](=O)(O)c2ccccc2)c1	inactive: 75%
NS(=O)(=O)c1cccc(NC(=O)COC(=O)C(O)(c2ccccc2)c2ccccc2)c1	inactive: 93.1%
O=P1(Nc2ccc(Br)cn2)COc2ccccc2OC1	inactive: 104%
O=[As](O)(c1cccs1)c1cccs1	inactive: 98.8%
Cc1ccc(OCC(=O)OC2CN3CCC2CC3)cc1 (centres undefined)	inactive: 102%
Cc1ccc(C(=O)OC2CN3CCC2CC3)cc1 (centres undefined)	inactive: 94.1%
CC1CCC(C(C)C)C(OP(=O)(Nc2ccccn2)c2ccccc2)C1 (centres undefined)	inactive: 90.2%
Cc1nn(-c2ccccc2)c2c1P(=O)(N1CCOCC1)N(C)C(c1ccccc1)=N2 (centres undefined)	inactive: 98.9%
CN(C)C1(CNC(=O)c2ccc(S(C)(=O)=O)cc2)CCCCC1	inactive: 99.6%
O=C(/C=C/c1ccccc1)OC1CN2CCC1CC2 (centres undefined)	inactive: 92.8%
COc1ccccc1CNC(=O)COC(=O)C(O)(c1ccccc1)c1ccccc1	inactive: 105%
CN(C(=O)Cc1ccc(Cl)c(Cl)c1)[C@@H]1CCCC[C@H]1N1CCCC1	inactive: 81.2%
CC(C)/C=N\N=C(\N)N[N+](=O)[O-]	inactive: 98.3%
CC1(CBr)Cn2c(nc3ccccc3c2=O)S1 (centres undefined)	inactive: 102%
O=[As](O)(c1ccccc1Br)c1ccccc1Br	inactive: 104%
CCOP(=O)(NC(=NC(C)c1ccccc1)NC(C)c1ccccc1)OCC (centres undefined)	inactive: 100%
CCC1=CC2Cc3nc4ccc(Cl)cc4c(N)c3C(C1)C2 (centres undefined)	inactive: 96.7%
O=P1(Nc2ccccn2)COc2ccccc2OC1	inactive: 99%
CN(CCCl)Cc1cc(Cl)c(NC2=NCCN2)c(Cl)c1	inactive: 101%
CCOP(=O)(Nc1ccc(C)cn1)OCC	inactive: 109%
CC(C)(C)C(=O)NC(Sc1ncccn1)C(Cl)(Cl)Cl (centres undefined)	inactive: 99%
Clc1n[nH]nc1-c1nn[nH][15n]1	inactive: 102%
